# Measured values reported in patent US20240132593A1 (KINETA, published 2024).
# B1: VSTB174 (antibody, V domains shown)
# VH: QVQLVQSGAEVKKPGSSVKVSCKASGGTFSSYAISWVRQAPGQGLEWMGGIIPIFGTANYAQKFQGRVTITADESTSTAYMELSSLRSEDTAVYYCARSSYGWSYEFDYWGQGTLVTVSS
# VL: DIQMTQSPSSLSASVGDRVTITCRASQSIDTRLNWYQQKPGKAPKLLIYSASSLQSGVPSRFSGSGSGTDFTLTISSLQPEDFATYYCQQSAYNPITFGQGTKVEIKR
# Tests used:
# 2.3E-VISTA-ECD-Fc = 2.3E-VISTA-ECD-Fc (human); experiment: ELISA on plate-bound VISTA-ECD-Fc
# 2.1F-VISTA-ECD-Fc = 2.1F-VISTA-ECD-Fc (human); experiment: ELISA on plate-bound VISTA-ECD-Fc
# 1.1-VISTA-ECD-Fc = 1.1-VISTA-ECD-Fc (human); experiment: ELISA on plate-bound VISTA-ECD-Fc
# 7.1-VISTA-ECD-Fc = 7.1-VISTA-ECD-Fc (human); experiment: ELISA on plate-bound VISTA-ECD-Fc
# 10.3-VISTA-ECD-Fc = 10.3-VISTA-ECD-Fc (human); experiment: ELISA on plate-bound VISTA-ECD-Fc
# 1.3-VISTA-ECD-Fc = 1.3-VISTA-ECD-Fc (human); experiment: ELISA on plate-bound VISTA-ECD-Fc
# 2.1B-VISTA-ECD-Fc = 2.1B-VISTA-ECD-Fc (human); experiment: ELISA on plate-bound VISTA-ECD-Fc
# 5.1-VISTA-ECD-Fc = 5.1-VISTA-ECD-Fc (human); experiment: ELISA on plate-bound VISTA-ECD-Fc
# 1.2-VISTA-ECD-Fc = 1.2-VISTA-ECD-Fc (human); experiment: ELISA on plate-bound VISTA-ECD-Fc
# 3.2-VISTA-ECD-Fc = 3.2-VISTA-ECD-Fc (human); experiment: ELISA on plate-bound VISTA-ECD-Fc
# 7.3-VISTA-ECD-Fc = 7.3-VISTA-ECD-Fc (human); experiment: ELISA on plate-bound VISTA-ECD-Fc
# 2.3F-VISTA-ECD-Fc = 2.3F-VISTA-ECD-Fc (human); experiment: ELISA on plate-bound VISTA-ECD-Fc
# 3xN-VISTA-ECD-Fc = 3xN-VISTA-ECD-Fc (human); experiment: ELISA on plate-bound VISTA-ECD-Fc
# 3xHis-Ala-VISTA-ECD-Fc = 3xHis-Ala-VISTA-ECD-Fc (human); experiment: ELISA on plate-bound VISTA-ECD-Fc
# WT-VISTA-ECD-Fc = molecular target: T1, WT-VISTA-ECD-Fc (human); experiment: ELISA on plate-bound VISTA-ECD-Fc
# T1 construct: also called human VISTA-Fc
# 2.1A-VISTA-ECD-Fc = 2.1A-VISTA-ECD-Fc (human); experiment: ELISA on plate-bound VISTA-ECD-Fc
# 2.3D-VISTA-ECD-Fc = 2.3D-VISTA-ECD-Fc (human); experiment: ELISA on plate-bound VISTA-ECD-Fc
# 4.1-VISTA-ECD-Fc = 4.1-VISTA-ECD-Fc (human); experiment: ELISA on plate-bound VISTA-ECD-Fc
# 2.3-VISTA-ECD-Fc = molecular target: T2, 2.3-VISTA-ECD-Fc (human); experiment: ELISA on plate-bound VISTA-ECD-Fc
# T2 construct: also called VISTA-ECD mutant 2.3
# 3.1-VISTA-ECD-Fc = 3.1-VISTA-ECD-Fc (human); experiment: ELISA on plate-bound VISTA-ECD-Fc
# 5xN-VISTA-ECD-Fc = 5xN-VISTA-ECD-Fc (human); experiment: ELISA on plate-bound VISTA-ECD-Fc
# 2xHis-Ala-VISTA-ECD-Fc = 2xHis-Ala-VISTA-ECD-Fc (human); experiment: ELISA on plate-bound VISTA-ECD-Fc
# 2.1C-VISTA-ECD-Fc = 2.1C-VISTA-ECD-Fc (human); experiment: ELISA on plate-bound VISTA-ECD-Fc
# 2xN-VISTA-ECD-Fc = 2xN-VISTA-ECD-Fc (human); experiment: ELISA on plate-bound VISTA-ECD-Fc
# 7.2-VISTA-ECD-Fc = 7.2-VISTA-ECD-Fc (human); experiment: ELISA on plate-bound VISTA-ECD-Fc
# 7.4-VISTA-ECD-Fc = 7.4-VISTA-ECD-Fc (human); experiment: ELISA on plate-bound VISTA-ECD-Fc
# 6.1-VISTA-ECD-Fc = 6.1-VISTA-ECD-Fc (human); experiment: ELISA on plate-bound VISTA-ECD-Fc
# 2.3B-VISTA-ECD-Fc = 2.3B-VISTA-ECD-Fc (human); experiment: ELISA on plate-bound VISTA-ECD-Fc
# 2.3C-VISTA-ECD-Fc = 2.3C-VISTA-ECD-Fc (human); experiment: ELISA on plate-bound VISTA-ECD-Fc
# 2.1E-VISTA-ECD-Fc = 2.1E-VISTA-ECD-Fc (human); experiment: ELISA on plate-bound VISTA-ECD-Fc
# 8xHis-Ala-VISTA-ECD-Fc = 8xHis-Ala-VISTA-ECD-Fc (human); experiment: ELISA on plate-bound VISTA-ECD-Fc
# 2.1D-VISTA-ECD-Fc = 2.1D-VISTA-ECD-Fc (human); experiment: ELISA on plate-bound VISTA-ECD-Fc
# 8.1-VISTA-ECD-Fc = 8.1-VISTA-ECD-Fc (human); experiment: ELISA on plate-bound VISTA-ECD-Fc
# 2.3A-VISTA-ECD-Fc = 2.3A-VISTA-ECD-Fc (human); experiment: ELISA on plate-bound VISTA-ECD-Fc
# 2.2-VISTA-ECD-Fc = 2.2-VISTA-ECD-Fc (human); experiment: ELISA on plate-bound VISTA-ECD-Fc
# RFQ-VISTA-ECD-Fc = molecular target: T3, RFQ-VISTA-ECD-Fc (human); experiment: ELISA, 10 ug/mL antibody on plate-bound mutant VISTA-Fc
# T3 construct: also called hVISTA ECD-Fc R54A, F62A, Q63A; human VISTA-Fc 54A62A63A
binder,measurement,setting,value
B1,EC50,2.3E-VISTA-ECD-Fc,0.08 µg/mL
same,EC50,2.1F-VISTA-ECD-Fc,0.09 µg/mL
same,EC50,1.1-VISTA-ECD-Fc,0.1 µg/mL
same,EC50,7.1-VISTA-ECD-Fc,0.08 µg/mL
same,EC50,10.3-VISTA-ECD-Fc,0.04 µg/mL
same,EC50,1.3-VISTA-ECD-Fc,0.1 µg/mL
same,EC50,2.1B-VISTA-ECD-Fc,0.07 µg/mL
same,EC50,5.1-VISTA-ECD-Fc,0.1 µg/mL
same,EC50,1.2-VISTA-ECD-Fc,0.1 µg/mL
same,EC50,3.2-VISTA-ECD-Fc,0.1 µg/mL
same,EC50,7.3-VISTA-ECD-Fc,0.11 µg/mL
same,EC50,2.3F-VISTA-ECD-Fc,0.06 µg/mL
same,EC50,3xN-VISTA-ECD-Fc,0.1 µg/mL
same,EC50,3xHis-Ala-VISTA-ECD-Fc,0.1 µg/mL
same,EC50,WT-VISTA-ECD-Fc,0.06 µg/mL
same,EC50,2.1A-VISTA-ECD-Fc,0.1 µg/mL
same,EC50,2.3D-VISTA-ECD-Fc,0.04 µg/mL
same,EC50,4.1-VISTA-ECD-Fc,0.1 µg/mL
same,EC50,2.3-VISTA-ECD-Fc,21 µg/mL
same,EC50,3.1-VISTA-ECD-Fc,0.1 µg/mL
same,EC50,5xN-VISTA-ECD-Fc,0.1 µg/mL
same,EC50,2xHis-Ala-VISTA-ECD-Fc,0.1 µg/mL
same,EC50,2.1C-VISTA-ECD-Fc,0.07 µg/mL
same,EC50,2xN-VISTA-ECD-Fc,0.1 µg/mL
same,EC50,7.2-VISTA-ECD-Fc,0.09 µg/mL
same,EC50,7.4-VISTA-ECD-Fc,0.08 µg/mL
same,EC50,6.1-VISTA-ECD-Fc,0.1 µg/mL
same,EC50,2.3B-VISTA-ECD-Fc,0.09 µg/mL
same,EC50,2.3C-VISTA-ECD-Fc,0.07 µg/mL
same,EC50,2.1E-VISTA-ECD-Fc,74 µg/mL
same,EC50,8xHis-Ala-VISTA-ECD-Fc,0.08 µg/mL
same,EC50,2.1D-VISTA-ECD-Fc,0.05 µg/mL
same,EC50,8.1-VISTA-ECD-Fc,0.06 µg/mL
same,EC50,2.3A-VISTA-ECD-Fc,0.06 µg/mL
same,EC50,2.2-VISTA-ECD-Fc,0.1 µg/mL
same,ELISA Abs 450 nm,RFQ-VISTA-ECD-Fc,0.017 Abs 450 nm
